Measurements published in patent publication US20250325508A1, “MODULATORS OF PROTEASOME DYNAMICS AND/OR FUNCTION, COMPOSITIONS, METHODS, AND THERAPEUTIC USES THEREOF” (TECHNION RESEARCH & DEVELOPMENT FOUNDATION LIMITED, priority 2022, published 2025).

Target: T1, mTOR (Homo sapiens, UniProt P42345)
T1 construct: endogenous in cells; host or cells: HeLa, RT4
Test: Co-localization of mTOR to the lysosomal membrane
Type: cell-based
Details: Torin1 treatment
Method: Cells were seeded on glass cover slips for 36 h. Following the indicated treatments, they were fixed with 4% PFA for 15 min, washed with phosphate-buffered saline (PBS) and incubated in PBS containing 10% goat serum for 1 h at room temperature, followed by 2 h incubation with the indicated primary antibody. Following extensive wash with PBS, the fixed cells were incubated with the relevant secondary antibody for 1 h, washed and mounted. Images were acquired using Zeiss LSM 700 confocal microscope (Zeiss, Oberkochen, Germany).

## CCC(=O)N1CCN(c2ccc(-n3c(=O)ccc4cnc5ccc(-c6cnc7ccccc7c6)cc5c43)cc2C(F)(F)F)CC1 [Torin1]
  mTOR localization to the lysosome: dissociation of mTOR from the lysosome
